Chains of the proteins cited; added tags and fusions are not shown.
UniProt O43614, whole entry: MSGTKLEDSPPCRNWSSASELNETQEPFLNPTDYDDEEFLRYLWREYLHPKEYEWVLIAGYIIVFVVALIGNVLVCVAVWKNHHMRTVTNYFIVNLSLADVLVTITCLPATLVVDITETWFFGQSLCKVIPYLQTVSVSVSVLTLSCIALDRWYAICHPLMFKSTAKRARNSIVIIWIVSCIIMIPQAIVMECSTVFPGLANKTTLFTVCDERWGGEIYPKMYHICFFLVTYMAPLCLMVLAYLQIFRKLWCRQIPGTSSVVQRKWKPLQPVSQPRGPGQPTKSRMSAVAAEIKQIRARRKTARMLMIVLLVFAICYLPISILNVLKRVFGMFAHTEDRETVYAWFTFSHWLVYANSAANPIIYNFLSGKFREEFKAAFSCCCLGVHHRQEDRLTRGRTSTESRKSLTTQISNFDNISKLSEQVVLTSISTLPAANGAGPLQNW

According to patent publication US12692262B2, “Substituted ureas as orexin receptor agonists” (Merck Sharp & Dohme LLC, priority 2020, dated 2026):

Target: human OX2R (Homo sapiens, UniProt O43614)
Assay: IPOne (IP-1 accumulation) assay in CHO cells expressing human OX2R
Assay type: cell-based
Settings: read-out: OX2R Potency, EC50, IP-One assay, 2 h incubation, four parameter logistic fit

EC50: 341 nM
SMILES: CC[C@H](CCC(F)(F)F)NC(=O)N(CC)Cc1cc(-c2ccc3nccn3c2)c(OC)cc1OC
